Reference: patent US10722484B2, “Methods of cancer treatment” (K-Gen, Inc., priority 2016, dated 2020)

Test system: colon cancer cell line Colo205
Assay: MacSynergy combination experiments
Format: cell-based
Description: A 96-well MacSynergy II format for combination test was also used. […] The analysis was done with the SQRT(Data) scale and the four parameter Hill curve was fitted using XLfit5.1 (the MacSynergy II Excel Spreadsheet) for the inhibition data. Synergy (positive number) or Antagonism (negative number) volumes were calculated. […] Three-dimensional MacSynergy II graphs were generated where positive values indicated synergism and negative values indicated antagonism.

With O=C1[O][Pt]2([NH][C@@H]3CCCC[C@H]3[NH]2)[O]C1=O [Oxaliplatin] the “synergy volume (MacSynergy)” value (Colo205, in combination with K101A (column not headed)) was 11 and the “synergy volume (MacSynergy)” value (Colo205, in combination with K102 (column not headed)) was 25.
